Experiments:
[1] = biological target: T1, K-Ras(G12V) (Homo sapiens, UniProt P01116, G12V); assay: Fluorescence anisotropy (FA) binding of FITC-labeled cyclic peptides to K-Ras; conditions: Table 1, resynthesized FITC-labeled peptides
T1 construct: The G12V mutant K-Ras (amino acids 1-185) was recombinantly fused; GST (N, cleaved yes); made in house; host or cells: Escherichia coli BL21

[2] = biological target: T2, K-Ras / Raf RBD interaction (Homo sapiens, UniProt P01116, G12V); assay: HTRF assay, inhibition of Ras-Raf RBD interaction; assay type: binding;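 also: HTRF signal read after overnight incubation of the assay plate at 4 °C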
T2 construct: The G12V mutant K-Ras (amino acids 1-185) was recombinantly fused; GST (N, cleaved yes); made in house; host or cells: Escherichia coli BL21

Substance	Kd [1]	IC50 [2]
(Arg-Arg-nal-Arg-Fpa-nle-Tyr-asn-ala-Ile-Gln) [Cyclorasin 10A]	> 10 µM	
(BzlHis-Thr-ala-arg-Arg-Arg-nal-Arg-Fpa-nle-Gln) [Cyclorasin 9A8]		0.59 ± 0.12 µM
(Arg-Arg-nal-Arg-Fpa-ala-Fpa-Thr-nal-Gln) [Cyclorasin 11A]	> 10 µM	
